{"source": "patent US10973920B2", "about": "“Saccharide derivative of a toxic payload and antibody conjugates thereof” (priority 2014, dated 2021)", "test_system": "cancer cells (SKOV-3 and HSC-2)", "assay": "Cytotoxicity to cancer cells, PrestoBlue cell viability, 96 h", "conditions": "concentrations up to 100 nM", "protocol": "Human ovarian cancer cell line SKOV-3 (ATCC, Manassas, Va., USA) and head-and-neck squamous cell carcinoma cell line HSC-2 (Japanese Collection of Research Bioresources, Osaka, Japan) were grown according to the suppliers' recommendations. Log phase cultures were collected and cells were seeded onto 96-well plates and incubated for 24 h. Serial dilutions of test molecules were added to cells and cultures were incubated further for 96 h. Cell viability was evaluated using PrestoBlue cell viability reagent (Life Technologies, Carlsbad, Calif., USA) according to the manufacturer's instructions. Cells were incubated for 2 h, and dye reduction was measured by absorbance at 570 nm. The compounds were assayed 1-2 times in triplicate.\nThe results are expressed in Table 1 as IC50 values."}
{"substance": "Cet-MMAG: cetuximab-VC-PAB-MMAG antibody-drug conjugate with drug-to-antibody ratio of 1:1", "values": [{"measurement": "Cytotoxicity (in words)", "result": "increased cytotoxicity compared to MMAE"}]}
